Earlier results as cited in patent publication US20130028991A1, “DIETARY SUPPLEMENT FOR USE IN A WEIGHT LOSS PROGRAM” (priority 2011, published 2013).

Conditions: patients of the group treated with insulin, UKPDS

Substance: insulin
- weight gained on average: 6.5 kg
